Results from patent US10487044B2, “Gamma-aminobutyric acid hemihydrate crystal and preparation method thereof” (priority 2016, dated 2019).

Assay: Stability in constant temperature and humidity chamber, followed by X-ray powder diffraction
Details: petri dish, 30° C., 60 days, samples at the 30th and 60th days

stability: X-ray powder diffraction patterns after storage, did not change significantly:
NCCCC(=O)O [Embodiment 4, γ-aminobutyric acid hemihydrate]
NCCCC(=O)O [Embodiment 6, γ-aminobutyric acid hemihydrate]
NCCCC(=O)O [Embodiment 2, γ-aminobutyric acid hemihydrate]
NCCCC(=O)O [Embodiment 5, γ-aminobutyric acid hemihydrate]
NCCCC(=O)O [Embodiment 3, γ-aminobutyric acid hemihydrate]
NCCCC(=O)O [Embodiment 1, γ-aminobutyric acid hemihydrate]
